Assay results reported in US9951111B2, “Type I interferon mimetics as therapeutics for cancer, viral infections, and multiple sclerosis” (priority 2011, dated 2018).

Experiments:
[1] = system: pJAK1, pTYK2, IFNAR1 and IFNAR2 in the nucleus; assay: Western blot of nuclear fractions of type I IFN treated WISH cells; type: cell-based, human; details: versus untreated cells
WISH cells = assay: Apoptosis assay, Annexin V and propidium iodide flow cytometry; details: 100 U/ml for 4 days, cells staining for both Annexin V and PI
lymphocytes = assay: IFN toxicity in vivo: lymphocyte count on blood smears (Table 4); details: day 11, i.p. alternate days for ten days, IFN mimetics 2 × 10^3 U in 200 μg per mouse, IFNβ 10^3 U/mouse
[2] = IFN toxicity in vivo: body weight (FIG. 7); details: 1,000 U per mouse I.P. on alternate days, by day 10

Row | Substance | IFNAR1 in the nucleus [1] | toxicity/apoptosis above controls (WISH cells) | Lymphocytes (%) (lymphocytes) | % Reduction (lymphocytes) (lymphocytes; versus PBS) | weight loss [2]
1 | IFNα2 | increased several fold | approximately 14% | – | – | –
2 | IFNβ | – | – | 59 ± 6% | 24% | approximately 15%
